Experimental data taken from patent publication US20110144317A1, “MUTANTS OF GLYCOSIDE HYDROLASES AND USES THEREOF FOR SYNTHESIZING COMPLEX OLIGOSACCHARIDES AND DISACCHARIDE INTERMEDIATES” (priority 2008, published 2011).

Tests used:
[1] = Comparison of products synthesized by wild type and AS variant I228Y (HPAEC/HPLC); format: biochemical; settings: sole presence of sucrose, 146 mM, FIG. 7B
Procedure: All assays were performed at 30° C. in 50 mM Tris buffer, pH=7.0. For the acceptor reactions, I228Y and wild type AS were tested on α-L-Rhap-OMe (formula II) used as acceptor.
Comparison of products synthesized by wild type and AS variant. Reactions were performed in the presence of 146 mM sucrose alone or supplemented with 146 mM acceptor. The purified wild-type or mutated GST/AS were employed at 0.5 U/mL. The reactions were stopped by heating at 95° C. for […]. The final mixture was centrifuged at 18 000 g for 5 min. Different carbohydrate analyses were performed to compare the product profiles synthesized by ASNPwt and AS variant (I228Y):
Soluble and insoluble oligosaccharides produced during the reaction were identified by HPAEC using a Dionex Carbo-Pack PA100 column at 30° C. Before analysis, the insoluble fraction was solubilised in KOH at a final total sugar concentration of 10 g/kg. Mobile phase (150 mM NaOH) was set at 1 mL/min flow rate with a sodium acetate gradient (going from 6 to 500 mM within 120 min). Detection was performed using a Dionex ED40 module with a gold working electrode and an Ag/AgCl pH reference. Note that α-L-Rhap-OMe (acceptor) and its derivatives are not oxidable products and thus are not detectable by HPAEC. Sucrose, glucose, fructose, α-L-Rhap-OMe (acceptor) and its derivatives (glucosylation products) were quantified by HPLC, as previously described.

[2] = Screening of AS single mutant library for glucosylation of α-L-Rhap-OMe (HPLC); format: biochemical; settings: desired product α-D-Glcp-(1→3)-α-L-Rhap-OMe; sucrose and acceptor each 73 mM, 30° C., 24 h, microtiter format
Procedure: The protocol was established to enable the rapid identification of clones able to glucosylate α-L-Rhap-OMe (formula II). To obtain higher amounts of enzymes and facilitate detection of glucosylated compounds upon HPLC screening, mutants were produced in 96-DeepWell Format plates. Storage microplates containing monomutants were thawed and replicated to inoculate a starter culture in 96-well microplates containing, in each well, 150 μL LB medium supplemented with ampicillin (100 μg/mL). After growth for 24 h at 30° C. under agitation (200 rpm), plates were duplicated into 96-Deep Well plates containing, in each well, 1.1 mL LB medium supplemented with ampicillin (100 μg/mL) and IPTG (1 mM) to induce GST-AS expression. Cultures were then grown for 24 h at 30° C. under agitation (200 rpm). […]
Efficiency of the glucosylation reaction was evaluated by HPLC analysis of the acceptor reaction product synthesized when using α-L-Rhap-OMe as acceptor using a Dionex P 680 series pump, a Shodex RI 101 series refractometer, a Dionex UVD 340 UV/Vis detector and an autosampler HTC PAL. […]
For each of the 7 selected positions, 19 single mutants were generated (corresponding to each possible amino acid change). […] Both sucrose consumption and disaccharide formation were determined in order to calculate the glucosylation rate defined as the molar ratio of monoglucosylated acceptor versus/sucrose consumed.

B1: I228Y: 1G5A (N. polysaccharea amylosucrase, SEQ ID NO: 13) single mutant, isoleucine 228 replaced by tyrosine (protein, listed as Neisseria polysaccharea)
chain: SPNSQYLKTRILDIYTPEQRAGIEKSEDWRQFSRRMDTHFPKLMNELDSVYGNNEALLPMLEMLLAQAWQSYSQRNSSLKDIDIARENNPDWILSNKQVGGVCYVDLFAGDLKGLKDKIPYFQELGLTYLHLMPLFKCPEGKSDGGYAVSSYRDVNPALGTIGDLREVIAALHEAGISAVVDFIFNHTSNEHEWAQRCAAGDPLFDNFYYIFPDRRMPDQYDRTLREYFPDQHPGGFSQLEDGRWVWTTFNSFQWDLNYSNPWVFRAMAGEMLFLANLGVDILRMDAVAFIWKQMGTSCENLPQAHALIRAFNAVMRIAAPAVFFKSEAIVHPDQVVQYIGQDECQIGYNPLQMALLWNTLATREVNLLHQALTYRHNLPEHTAWVNYVRSHDDIGWTFADEDAAYLGISGYDHRQFLNRFFVNRFDGSFARGVPFQYNPSTGDCRVSGTAAALVGLAQDDPHAVDRIKLLYSIALSTGGLPLIYLGDEVGTLNDDDWSQDSNKSDDSRWAHRPRYNEALYAQRNDPSTAAGQIYQDLRHMIAVRQSNPRFDGGRLVTFNTNNKHIIGYIRNNALLAFGNFSEYPQTVTAHTLQAMPFKAHDLIGGKTVSLNQDLTLQPYQVMWLEIA
Question: With B1 as the molecule, how does the “ability to elongate maltooligosaccharide chains and to synthesize insoluble polymers” value [1] read?
Answer: lost its ability

Question: And the “glucosylation rate (molar ratio of monoglucosylated acceptor versus sucrose consumed)” value [2]?
Answer: 23%
